Values quoted from earlier work as cited in patent US20090209474A1, “NOVEL USES FOR DRUGS TARGETING GLUTAMINE SYNTHETASE” (NEWTHERA, priority 2005, published 2009).

System: a number of animal species
Settings: in vivo; cited from earlier work

CS(=N)(=O)CC[C@H](N)C(=O)O (stereo partly shown) [MS, 2-amino-4-(S-methylsulfonimidosyl)butanoic acid]
doses producing neurological disorders, in particular seizures: ≥ 2 mg/kg body weight
